# Source: publication PMC8667020
# T1: ASC^F136A (ASC-YFP mutant; F163A in the methods), Q9ULZ3
# T1 chain: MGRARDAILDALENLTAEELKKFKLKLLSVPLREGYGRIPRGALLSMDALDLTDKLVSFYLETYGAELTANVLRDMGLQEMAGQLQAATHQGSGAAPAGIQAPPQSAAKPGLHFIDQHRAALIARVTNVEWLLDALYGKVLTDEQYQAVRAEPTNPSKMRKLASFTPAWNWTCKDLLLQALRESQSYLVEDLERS
# B1: ASC-YFP, Q9ULZ3 F136A (protein)
# chain: T1 chain
# Molecular target: T1, ASC^F136A (ASC-YFP mutant; F163A in the …)
# Experiment: flow cytometry of ASC-YFP speck formation in transfected HEK293 cells
# Conditions: chain shown with the change, parent: est. 37, read off a plot
binder,measurement,value
B1,other: ASC specks (%),19%
